Results on 8 compounds are retold here after patent US9725439B2, “Quinazoline derivative and preparation method therefor” (CHIA TAI TIANQING PHARMACEUTICAL GROUP CO., LTD., priority 2013, dated 2017).

Sequences of proteins named here, by UniProt entry; tags and fusion partners are left off. Residues count along the entry.
UniProt P00533, 25-1210: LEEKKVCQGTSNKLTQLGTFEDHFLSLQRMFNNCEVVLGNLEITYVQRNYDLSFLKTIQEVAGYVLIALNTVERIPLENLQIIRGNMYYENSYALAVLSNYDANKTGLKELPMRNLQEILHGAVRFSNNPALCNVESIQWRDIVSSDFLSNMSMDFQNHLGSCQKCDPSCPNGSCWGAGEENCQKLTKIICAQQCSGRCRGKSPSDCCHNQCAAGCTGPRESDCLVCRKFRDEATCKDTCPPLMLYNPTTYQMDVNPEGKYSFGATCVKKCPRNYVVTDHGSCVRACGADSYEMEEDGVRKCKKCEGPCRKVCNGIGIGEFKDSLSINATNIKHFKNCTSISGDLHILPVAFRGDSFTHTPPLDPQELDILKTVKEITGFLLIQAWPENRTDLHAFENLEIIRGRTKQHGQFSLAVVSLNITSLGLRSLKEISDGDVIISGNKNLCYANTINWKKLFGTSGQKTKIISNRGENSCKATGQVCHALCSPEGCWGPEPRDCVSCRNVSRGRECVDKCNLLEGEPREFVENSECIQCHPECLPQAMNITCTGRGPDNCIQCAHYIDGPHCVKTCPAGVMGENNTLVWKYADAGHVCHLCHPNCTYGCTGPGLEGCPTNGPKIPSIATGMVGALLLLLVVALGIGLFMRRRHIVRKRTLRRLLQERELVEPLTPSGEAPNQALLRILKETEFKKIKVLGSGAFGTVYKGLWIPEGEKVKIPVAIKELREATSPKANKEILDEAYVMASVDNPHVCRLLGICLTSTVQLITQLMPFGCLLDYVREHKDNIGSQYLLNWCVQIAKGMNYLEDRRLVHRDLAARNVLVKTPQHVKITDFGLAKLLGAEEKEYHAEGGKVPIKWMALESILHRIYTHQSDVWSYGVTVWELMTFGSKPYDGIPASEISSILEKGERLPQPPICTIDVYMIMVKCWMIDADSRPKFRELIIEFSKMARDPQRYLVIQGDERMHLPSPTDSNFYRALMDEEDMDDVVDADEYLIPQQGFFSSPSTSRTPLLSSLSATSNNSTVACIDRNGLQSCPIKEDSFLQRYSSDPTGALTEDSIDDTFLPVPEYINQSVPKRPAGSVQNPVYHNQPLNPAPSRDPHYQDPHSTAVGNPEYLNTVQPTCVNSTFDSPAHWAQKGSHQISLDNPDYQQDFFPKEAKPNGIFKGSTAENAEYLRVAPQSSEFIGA
UniProt P00533, 25-1210 T790M/L858R: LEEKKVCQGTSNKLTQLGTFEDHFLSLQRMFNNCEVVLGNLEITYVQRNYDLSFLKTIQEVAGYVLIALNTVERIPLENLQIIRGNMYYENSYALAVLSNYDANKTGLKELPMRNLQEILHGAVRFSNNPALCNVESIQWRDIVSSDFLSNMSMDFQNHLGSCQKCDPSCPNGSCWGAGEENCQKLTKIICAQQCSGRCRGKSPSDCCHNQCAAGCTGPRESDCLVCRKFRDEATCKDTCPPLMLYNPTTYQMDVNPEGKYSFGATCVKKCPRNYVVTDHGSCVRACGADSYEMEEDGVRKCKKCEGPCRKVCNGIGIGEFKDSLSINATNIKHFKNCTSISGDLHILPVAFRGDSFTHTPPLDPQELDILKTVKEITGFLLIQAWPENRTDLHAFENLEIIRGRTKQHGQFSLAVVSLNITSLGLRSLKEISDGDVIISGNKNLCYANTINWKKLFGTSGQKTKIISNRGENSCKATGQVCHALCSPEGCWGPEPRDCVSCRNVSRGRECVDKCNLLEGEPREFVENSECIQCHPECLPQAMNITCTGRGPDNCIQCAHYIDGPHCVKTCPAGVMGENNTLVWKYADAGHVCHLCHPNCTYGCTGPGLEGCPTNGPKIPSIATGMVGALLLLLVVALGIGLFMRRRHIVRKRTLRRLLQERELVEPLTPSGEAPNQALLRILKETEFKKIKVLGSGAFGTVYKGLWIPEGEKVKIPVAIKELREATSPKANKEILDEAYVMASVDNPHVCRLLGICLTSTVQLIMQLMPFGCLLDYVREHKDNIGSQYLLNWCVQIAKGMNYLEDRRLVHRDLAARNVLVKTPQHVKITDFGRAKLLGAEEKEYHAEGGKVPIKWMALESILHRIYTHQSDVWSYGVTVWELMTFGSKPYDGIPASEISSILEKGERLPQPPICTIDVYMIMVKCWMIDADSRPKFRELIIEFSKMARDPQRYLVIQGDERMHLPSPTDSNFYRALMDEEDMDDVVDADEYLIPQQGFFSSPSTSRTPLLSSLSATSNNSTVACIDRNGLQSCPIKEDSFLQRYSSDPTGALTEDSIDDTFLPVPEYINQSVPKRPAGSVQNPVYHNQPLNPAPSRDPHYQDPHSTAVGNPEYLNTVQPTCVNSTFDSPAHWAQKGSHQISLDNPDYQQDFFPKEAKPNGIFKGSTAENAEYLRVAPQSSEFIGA

Assay [1] concerns the target EGFR (Homo sapiens (Human), UniProt P00533). Description: In vitro enzymology test (HTRF kinase activity). It counts as biochemical. To be noted: read-out: Enzyme activity (IC50 nM) EGFR.
Assay [2] deals with EGFR (T790M, L858R) (Homo sapiens (Human), UniProt P00533, L858R/T790M). Description: In vitro enzymology test (HTRF kinase activity). The assay is classed as biochemical. To be noted: read-out: Enzyme activity (IC50 nM) EGFR-L858R/T790M.

Structures are written as SMILES.

Regarding `C=CC(=O)N1CCC(Nc2cc3c(Nc4ccc(F)c(Cl)c4)ncnc3cc2OC)CC1` [Example 2, N^6-(1-acryloylpiperidin-4-yl)-N^4-(3-chloro-4-fluorophenyl)-7-methoxyquinazoline-4,6-diamine], the IC50 in assay [1] was found to be 0.2 nM; in assay [2], 2 nM.

Turning to `C=CC(=O)N1CCC(Nc2cc3c(Nc4ccc(F)c(Cl)c4)ncnc3cc2O[C@H]2CCOC2)CC1` [Example 4, (S)—N^6-(1-acryloylpiperidin-4-yl)-N^4-(3-chloro-4-fluorophenyl)-7-(tetrahydrofuran-3-yloxy)quinazoline-4,6-diamine], the values for the IC50 in assay [1] and in assay [2] were 0.4 nM and 2.1 nM, respectively.

With `C=CC(=O)N1CCC(Nc2cc3c(Nc4ccc(F)c(Cl)c4)ncnc3cc2O[C@H]2CCOC2)C1` (stereo partly drawn) [Example 6, (S)—N^6-(1-acryloylpyrrolidin-3-yl)-N^4-(3-chloro-4-fluorophenyl)-7-(tetrahydrofuran-3-yloxy)quinazoline-4,6-diamine], in assay [2], the IC50 stood at 52.1 nM.

As for `C#Cc1cccc(Nc2ncnc3cc(OC)c(NC4CCN(C(=O)C=C)CC4)cc23)c1` [Example 10, N^6-(1-acryloylpiperidin-4-yl)-N^4-(3-ethynylphenyl)-7-methoxyquinazoline-4,6-diamine], the IC50 in assay [2] amounted to 8.6 nM.

Take `C=CC(=O)N1CCC(Nc2cc3c(Nc4cccc(Br)c4)ncnc3cc2OC)CC1` [Example 15, N^6-(1-acryloylpiperidin-4-yl)-N^4-(3-bromophenyl)-7-methoxyquinazoline-4,6-diamine]: the IC50 in assay [1] was determined as 0.3 nM; in assay [2], 2.9 nM.

On to `C=CC(=O)N1CC(Nc2cc3c(Nc4ccc(F)c(Cl)c4)ncnc3cc2OCCOC)C1` [Example 16, N^6-(1-acryloylazetidin-3-yl)-N^4-(3-chloro-4-fluorophenyl)-7-(2-methoxyethoxy)quinazoline-4,6-diamine], for which, in assay [2], the IC50 came to 1.2 nM.

Turning to `C=CC(=O)N1CCC(Nc2cc3c(Nc4ccc(F)c(Cl)c4)ncnc3cc2OCCOC)CC1` [Example 17, N^6-(1-acryloylpiperidin-4-yl)-N^4-(3-chloro-4-fluorophenyl)-7-(2-methoxyethoxy)quinazoline-4,6-diamine], the IC50 in assay [1] stood at 0.2 nM; in assay [2], 1.2 nM.

For `C=CC(=O)N1CC(Nc2cc3c(Nc4ccc(F)c(Cl)c4)ncnc3cc2OCCN2CCOCC2)C1` [Example 18, N^6-(1-acryloylazetidin-3-yl)-N^4-(3-chloro-4-fluorophenyl)-7-(2-morpholinylethoxy) quinazoline-4,6-diamine], the IC50 in assay [2] was 11.1 nM.
